According to patent publication US9108950B2, “1-pyrazolyl-3-(4-((2-anilinopyrimidin-4-yl)oxy)napththalen-1-yl) ureas as p38 MAP kinase inhibitors” (Respivert Ltd., priority 2011, dated 2015):

Molecular target: Syk (Homo sapiens (Human), UniProt P43405)
Assay: Syk enzyme inhibition (Z-LYTE FRET)
Format: biochemical
Description: The enzyme inhibitory activities of compounds disclosed herein were determined by FRET using synthetic peptides labelled with both donor and acceptor fluorophores (Z-LYTE, Invitrogen Ltd., Paisley, UK).
Development reagent (protease, 5 μL) was added for 1 hr prior to detection in a fluorescence microplate reader (Varioskan® Flash, ThermoFisher Scientific).
In all cases, the site-specific protease cleaves non-phosphorylated peptide only and eliminates the FRET signal. Phosphorylation levels of each reaction were calculated using the ratio of coumarin emission (donor) over fluorescein emission (acceptor), for which low ratios indicate high phosphorylation and high ratios indicate low phosphorylation levels.

Q: Which IC50 does the source give for `COCC(=O)Nc1cc(Oc2ccc(NC(=O)Nc3cc(C(C)(C)C)nn3-c3ccc(C)cc3)c3ccccc23)ccn1` [Reference Compound, N-(4-(4-(3-(3-tert-butyl-1-p-tolyl-1H-pyrazol-5-yl)ureido)naphthalen-1-yloxy)pyridin-2-yl)-2-methoxyacetamide] here?
A: Its IC50 is 42 nM.
